Laboratory results published in the Immune Epitope Database (IEDB).

Target: HLA-B*35:01
Experiment: IEDB peptide-MHC binding, purified MHC/competitive/radioactivity; ≥ and ≤ were set here for values at or beyond the usual limits of such assays
Settings: source organism: Homo sapiens

Sequence	IC50 [nM]
MPIEPGDIGY	1.7
TPTVPSGSF	666
